Experimental data taken from PMC11171933, “Rapid Determination of Kinetic Constants for Slow-Binding Inhibitors and Inactivators of Human Histone Deacetylase 8” (International Journal of Molecular Sciences, 2024).

Amino acid sequences for entries named in this document (tags omitted).
UniProt P10632, whole entry: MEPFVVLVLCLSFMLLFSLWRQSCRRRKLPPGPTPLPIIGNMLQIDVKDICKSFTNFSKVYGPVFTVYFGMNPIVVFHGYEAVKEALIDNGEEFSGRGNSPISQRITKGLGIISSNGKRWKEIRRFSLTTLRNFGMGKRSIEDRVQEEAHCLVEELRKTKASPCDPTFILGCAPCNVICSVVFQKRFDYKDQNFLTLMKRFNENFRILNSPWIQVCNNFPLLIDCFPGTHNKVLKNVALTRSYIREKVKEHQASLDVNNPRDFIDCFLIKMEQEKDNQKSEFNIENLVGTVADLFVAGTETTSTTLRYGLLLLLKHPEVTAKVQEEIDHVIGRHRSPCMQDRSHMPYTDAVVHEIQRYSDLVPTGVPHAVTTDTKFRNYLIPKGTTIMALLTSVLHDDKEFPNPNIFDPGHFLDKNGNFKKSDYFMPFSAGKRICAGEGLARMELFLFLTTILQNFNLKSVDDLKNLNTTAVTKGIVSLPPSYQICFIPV

Target: CYP2C8 (Homo sapiens, UniProt P10632)
Assay: Inactivation kinetics of CYP2C8 (literature data and reanalysis)
Conditions: reanalysis of literature data, kobs vs [I]

CNCCC(Oc1ccc(C(F)(F)F)cc1)c1ccccc1 (stereo not shown) [Fluoxetine]
Inactivation mechanism: indistinguishable from a one-step inactivation mechanism
